Usually IC50 stands for the concentration that gives 50% inhibition. Low values mean greater potency in that assay, high ones weaker potency in that assay.

The experiment has as its target T1, Cytochrome P450 11B2, mitochondrial (Homo sapiens, UniProt P19099).
T1 sequence (P19099 whole entry): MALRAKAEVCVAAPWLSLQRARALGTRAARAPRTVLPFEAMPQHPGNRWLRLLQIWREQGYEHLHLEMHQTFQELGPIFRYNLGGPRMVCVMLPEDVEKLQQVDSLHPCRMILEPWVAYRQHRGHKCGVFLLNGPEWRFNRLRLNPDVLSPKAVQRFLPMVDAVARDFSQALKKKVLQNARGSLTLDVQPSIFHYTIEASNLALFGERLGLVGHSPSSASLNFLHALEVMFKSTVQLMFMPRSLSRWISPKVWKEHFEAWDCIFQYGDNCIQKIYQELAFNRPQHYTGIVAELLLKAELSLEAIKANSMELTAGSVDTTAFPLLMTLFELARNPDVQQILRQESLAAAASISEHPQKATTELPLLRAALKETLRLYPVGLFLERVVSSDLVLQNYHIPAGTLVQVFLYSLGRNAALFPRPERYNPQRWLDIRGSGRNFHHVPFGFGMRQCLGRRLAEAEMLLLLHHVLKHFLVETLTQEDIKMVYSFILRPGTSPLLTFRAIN
Kind of experiment: Inhibition of human CYP11B2 expressed in hamster V79MZ cells using [1,2-3H]-11-deoxycorticosterone as substrate after 6 hrs by HPLC analysis. The experiment is classed as ADME, cell-based. A digest of the protocol: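 V79MZ cells expressing recombinant human CYP11B1 or CYP11B2, or rat CYP11B1, incubated with [1,2-³H]-11-deoxycorticosterone (100 nM) and inhibitor over a range of concentrations; ketoconazole as reference.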

Regarding `CC(C)(C(=O)c1cccnc1)c1cccnc1` [METYRAPONE], the IC50 worked out at 72 nM.

The values are drawn from ChEMBL document CHEMBL4014346, “Lead Optimization Generates CYP11B1 Inhibitors of Pyridylmethyl Isoxazole Type with Improved Pharmacological Profile for the Treatment of Cushing's Disease” (J Med Chem, 2017).
